Only a part is listed here, and it is no random draw. Records with an inconclusive call do not appear. The source made the active and inactive calls. The call rests on the fitted dose curve; in most records, active means well fitted inhibition curve with a large enough effect; inconclusive means small, poorly fitted or top-dose-only effect, or effect the other way; inactive means no such curve, though single readings can be large or run the other way.
On the % scale 0 is the no-effect control and ±100 the full control effect.

The chains behind the UniProt entries cited, without tags or fusion partners.
UniProt Q01196, whole entry, looked up: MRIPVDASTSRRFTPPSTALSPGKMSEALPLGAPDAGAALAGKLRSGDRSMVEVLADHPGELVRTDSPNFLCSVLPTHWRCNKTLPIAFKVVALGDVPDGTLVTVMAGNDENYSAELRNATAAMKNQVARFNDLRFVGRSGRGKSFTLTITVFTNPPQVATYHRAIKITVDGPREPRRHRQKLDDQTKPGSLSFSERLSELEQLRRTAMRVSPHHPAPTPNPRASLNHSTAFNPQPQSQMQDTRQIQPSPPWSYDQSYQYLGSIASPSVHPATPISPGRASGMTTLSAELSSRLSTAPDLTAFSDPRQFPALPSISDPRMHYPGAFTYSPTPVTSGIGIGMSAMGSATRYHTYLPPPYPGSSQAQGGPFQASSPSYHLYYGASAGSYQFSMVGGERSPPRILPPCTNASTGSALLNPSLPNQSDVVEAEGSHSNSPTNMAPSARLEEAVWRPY
UniProt Q13951, whole entry, looked up: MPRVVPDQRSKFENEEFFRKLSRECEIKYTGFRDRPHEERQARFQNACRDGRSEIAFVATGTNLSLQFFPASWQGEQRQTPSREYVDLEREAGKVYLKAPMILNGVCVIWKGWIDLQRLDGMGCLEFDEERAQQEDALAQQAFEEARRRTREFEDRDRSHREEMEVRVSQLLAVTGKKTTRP

The experiment has as its target Runt-related transcription factor 1 (Homo sapiens) + Core-binding factor subunit beta (Homo sapiens) (UniProt Q01196+Q13951). As to the kind of experiment: qHTS Assay for Compounds Blocking the Interaction Between CBF-beta and RUNX1 for the Treatment of Acute Myeloid Leukemia: Hit Validation with Orthogonal Assay. The conditions noted are these: CBFbeta-RUNX1 binding orthogonal assay, biochemical; at 41 µM (top of the series). On the technique in general: Quantitative high-throughput screening tests each substance at several concentrations.
Take `O=[N+]([O-])c1ccc(OP2(=O)COCCO2)cc1` (stereo unspecified): the activity change, negative = inhibition was inactive: 20.1%.

The values are drawn from PubChem BioAssay AID504375 (National Center for Advancing Translational Sciences (NCATS), 2011).
